Assay results: ChEMBL document CHEMBL3627608, “Crystal structures of human RIP2 kinase catalytic domain complexed with ATP-competitive inhibitors: Foundations for understanding inhibitor selectivity” (Bioorg Med Chem, 2015)

System: Fibroblast growth factor receptor
Assay: Inhibition of FGFR (unknown origin) at 10 uM after 120 mins P33 radiolabeled kinase activity assay
Settings: Homo sapiens

inhibition: -8.06%
SMILES: COCCNC(=O)c1ccc2c(c1)nc(-c1cnc(-c3ccc(Cl)cc3)[nH]1)n2CCOC
